Laboratory results: patent US20220411487A1 (Regeneron, published 2022)

Key:
Assay in all cases: flow cytometry, HEK293 cells expressing target
[1] = molecular target: T1, full length cynomolgous monkey TMPRSS6 on HEK293 cells (HEK293/mfTMPRSS6) (cynomolgous monkey/Macaca fascicularis, UniProt Q8IU80 10-811 (human entry))
T1 chain: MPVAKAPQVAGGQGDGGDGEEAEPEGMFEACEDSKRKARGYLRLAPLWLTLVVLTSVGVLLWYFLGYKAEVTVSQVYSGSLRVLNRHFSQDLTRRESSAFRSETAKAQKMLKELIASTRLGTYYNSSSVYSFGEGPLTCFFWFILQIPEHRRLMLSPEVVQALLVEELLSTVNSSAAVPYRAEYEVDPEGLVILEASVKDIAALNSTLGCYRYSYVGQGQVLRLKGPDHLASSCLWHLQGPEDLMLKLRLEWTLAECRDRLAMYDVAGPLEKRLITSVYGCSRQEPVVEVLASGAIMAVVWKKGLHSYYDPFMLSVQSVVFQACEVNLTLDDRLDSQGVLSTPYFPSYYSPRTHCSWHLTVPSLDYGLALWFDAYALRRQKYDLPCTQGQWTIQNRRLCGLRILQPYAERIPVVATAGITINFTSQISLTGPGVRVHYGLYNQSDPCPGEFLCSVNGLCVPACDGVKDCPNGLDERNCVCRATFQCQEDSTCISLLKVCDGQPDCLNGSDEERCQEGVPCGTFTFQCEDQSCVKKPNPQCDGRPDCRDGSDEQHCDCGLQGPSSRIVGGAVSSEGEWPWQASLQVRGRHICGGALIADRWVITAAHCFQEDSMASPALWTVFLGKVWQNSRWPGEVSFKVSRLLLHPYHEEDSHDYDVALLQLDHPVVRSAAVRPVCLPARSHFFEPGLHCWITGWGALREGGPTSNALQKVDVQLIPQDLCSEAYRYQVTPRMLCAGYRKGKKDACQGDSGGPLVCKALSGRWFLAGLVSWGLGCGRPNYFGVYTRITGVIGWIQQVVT
Experimental: (§1) To assess the binding of anti-TMPRSS6 antibodies of the present disclosure to the receptor expressed on the cell surface, antibodies (including an IgG subclass control) were serially diluted in assay buffer (PBS without Ca⁺⁺ and Mg⁺⁺ containing 2% FBS) from 375 nM to 22.9 pM (plus a sample containing assay buffer alone without test molecule) and incubated with 0.5×10⁶ cells/well at 4° C. for 30 minutes in assay buffer. […] Cells were fixed using BD CytoFix™ (Becton Dickinson, #554655) and analyzed on either the IQue® or IQue®Plus Flow Cytometers (Intellicyt®). Unstained and secondary antibody alone controls were also tested for all cell lines. The results were analyzed using ForeCyt® (IntelliCyt®) software to determine the geometric means of fluorescence for viable cells and binding ratio was calculated by normalizing the geometric mean value of the test condition by the geometric mean value of the corresponding unstained cells.

[2] = molecular target: T2, full length mouse TMPRSS6 on HEK293 cells (HEK293/mTMPRSS6) (mouse, UniProt Q9DBI0 1-811)
T2 construct: line sorted for high expression
T2 sequence: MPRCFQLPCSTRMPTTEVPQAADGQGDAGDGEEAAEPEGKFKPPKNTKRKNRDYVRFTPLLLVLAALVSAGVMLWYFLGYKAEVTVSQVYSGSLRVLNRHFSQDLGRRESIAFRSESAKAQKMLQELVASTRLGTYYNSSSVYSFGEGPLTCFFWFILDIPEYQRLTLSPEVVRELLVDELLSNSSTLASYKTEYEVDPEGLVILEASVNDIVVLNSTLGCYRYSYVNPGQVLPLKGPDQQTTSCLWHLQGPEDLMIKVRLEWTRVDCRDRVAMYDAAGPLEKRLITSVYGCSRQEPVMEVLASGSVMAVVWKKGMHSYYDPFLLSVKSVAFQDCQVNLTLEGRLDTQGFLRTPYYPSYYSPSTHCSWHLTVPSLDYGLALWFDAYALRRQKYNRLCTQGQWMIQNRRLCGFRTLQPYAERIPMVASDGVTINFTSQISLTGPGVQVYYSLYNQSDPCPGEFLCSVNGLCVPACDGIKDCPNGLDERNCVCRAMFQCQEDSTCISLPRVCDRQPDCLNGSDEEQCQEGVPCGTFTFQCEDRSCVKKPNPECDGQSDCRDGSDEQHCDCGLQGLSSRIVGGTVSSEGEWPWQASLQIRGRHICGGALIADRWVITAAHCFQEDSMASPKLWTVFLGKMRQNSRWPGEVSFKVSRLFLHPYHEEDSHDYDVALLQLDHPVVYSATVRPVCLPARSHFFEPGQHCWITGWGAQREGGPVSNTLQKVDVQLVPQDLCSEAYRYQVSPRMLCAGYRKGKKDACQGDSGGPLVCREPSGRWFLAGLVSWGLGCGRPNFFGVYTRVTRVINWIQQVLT
Experimental: as §1

[3] = molecular target: T3, full length human TMPRSS6 on HEK293 cells (HEK293/hTMPRSS6) (human, UniProt Q8IU80 10-811)
T3 construct: whole, on cells
T3 sequence (looked up): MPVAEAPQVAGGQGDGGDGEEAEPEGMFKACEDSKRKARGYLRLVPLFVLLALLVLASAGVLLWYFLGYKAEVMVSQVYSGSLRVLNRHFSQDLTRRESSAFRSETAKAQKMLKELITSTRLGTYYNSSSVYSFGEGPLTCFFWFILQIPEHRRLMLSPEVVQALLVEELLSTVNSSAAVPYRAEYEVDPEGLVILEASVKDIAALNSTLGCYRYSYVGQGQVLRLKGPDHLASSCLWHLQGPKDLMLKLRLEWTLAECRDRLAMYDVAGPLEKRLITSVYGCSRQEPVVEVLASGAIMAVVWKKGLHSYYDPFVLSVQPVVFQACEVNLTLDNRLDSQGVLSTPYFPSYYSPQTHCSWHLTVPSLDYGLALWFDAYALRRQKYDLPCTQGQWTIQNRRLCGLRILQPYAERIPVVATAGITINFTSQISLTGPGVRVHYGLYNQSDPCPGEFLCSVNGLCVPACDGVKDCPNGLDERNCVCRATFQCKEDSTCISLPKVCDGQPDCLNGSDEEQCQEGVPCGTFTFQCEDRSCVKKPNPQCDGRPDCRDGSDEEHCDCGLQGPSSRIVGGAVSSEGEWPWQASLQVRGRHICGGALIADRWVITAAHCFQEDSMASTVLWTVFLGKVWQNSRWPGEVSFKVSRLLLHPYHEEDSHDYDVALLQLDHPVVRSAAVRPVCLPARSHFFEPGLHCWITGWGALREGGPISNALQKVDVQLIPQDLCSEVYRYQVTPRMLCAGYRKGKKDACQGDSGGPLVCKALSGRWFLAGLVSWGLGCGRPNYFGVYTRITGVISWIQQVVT
Experimental: as §1

B1: REGN7973 (antibody, human IgG4 S228P, kappa, V domains shown)
VH: EVQLVESGGGLVKPGGSLRLSCAASGFTFSNAWMSWVRQAPGKGLEWVGRIKSKTDSGTTDYAAPVKGRFTISRDDSKNTLYLQMNSLKTEDTAVYYCTTVDNDFWSGYYNWFDPWGQGTLVTVSS
VL: [gap - about 100 residues]
notes: fully human; human IgG4 Fc with hinge S108P; also called mAb37777
[1]
  EC50: 3.3 nM
  Max. Fold Binding: 91 fold over unstained control
[2]
  EC50: 35 nM
  Max. Fold Binding: 42 fold over unstained control
[3]
  EC50: 2.7 nM
  Max. Fold Binding: 58 fold over unstained control
